We go through 25 compounds from PubChem BioAssay AID720709 (National Center for Advancing Translational Sciences (NCATS), 2013).

Sequences of proteins named here, by UniProt entry; tags and fusion partners are left off.
UniProt O95398, whole entry: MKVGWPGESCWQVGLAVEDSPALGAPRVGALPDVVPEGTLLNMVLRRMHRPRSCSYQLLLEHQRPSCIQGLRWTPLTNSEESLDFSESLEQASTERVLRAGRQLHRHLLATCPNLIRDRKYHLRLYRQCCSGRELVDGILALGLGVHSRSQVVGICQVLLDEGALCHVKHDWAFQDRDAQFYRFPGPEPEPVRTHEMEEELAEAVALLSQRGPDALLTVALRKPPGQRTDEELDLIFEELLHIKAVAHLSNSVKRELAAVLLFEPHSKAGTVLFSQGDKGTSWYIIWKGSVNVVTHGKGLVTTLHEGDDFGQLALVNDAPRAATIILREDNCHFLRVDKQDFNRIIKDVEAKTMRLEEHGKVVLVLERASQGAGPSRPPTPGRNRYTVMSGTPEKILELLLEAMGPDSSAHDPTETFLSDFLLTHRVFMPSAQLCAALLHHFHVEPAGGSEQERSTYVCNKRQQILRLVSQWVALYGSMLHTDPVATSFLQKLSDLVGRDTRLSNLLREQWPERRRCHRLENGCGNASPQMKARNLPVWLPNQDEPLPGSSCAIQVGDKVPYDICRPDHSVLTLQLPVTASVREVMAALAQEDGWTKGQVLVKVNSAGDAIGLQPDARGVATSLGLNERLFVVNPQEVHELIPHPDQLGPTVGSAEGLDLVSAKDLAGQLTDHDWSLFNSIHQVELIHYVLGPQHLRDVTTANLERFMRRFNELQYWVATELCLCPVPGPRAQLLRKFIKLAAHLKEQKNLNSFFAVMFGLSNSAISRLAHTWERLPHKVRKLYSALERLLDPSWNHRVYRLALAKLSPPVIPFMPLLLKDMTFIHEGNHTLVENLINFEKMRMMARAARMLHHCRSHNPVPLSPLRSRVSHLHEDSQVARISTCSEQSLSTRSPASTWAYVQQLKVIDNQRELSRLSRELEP

The list shows a part of the results, in another mix than the full data. Some results for these compounds are left out of this collection, so the calls shown say nothing about other tests. Inconclusive results are not listed. Active and inactive are the calls of the source. Calls follow the shape of the dose curve; as a rule, active = well fitted inhibition curve with a large enough effect; inconclusive = small, poorly fitted or top-dose-only effect; inactive = no such curve, though single readings can be large or run the other way.

The assay deals with Rap guanine nucleotide exchange factor 3 (Homo sapiens) (UniProt O95398). Briefly: qHTS for Antagonist of cAMP-regulated guanine nucleotide exchange factor 3 (EPAC1): primary screen. Also: nearly all actives have a fitted effect of over 50% in size. The settings on record: EPAC1 GEF assay, Rap1b-BODIPY-GDP exchange fluorescence; at 115 µM (top of the series). From the text:
In multi-cellular eukaryotic organisms, the effects of cAMP are transduced by two ubiquitously-expressed intracellular cAMP receptors, the classic protein kinase A/cAMP-dependent protein kinase (PKA/cAPK) and the more recently discovered exchange protein directly activated by cAMP/cAMP-regulated guanine nucleotide exchange factor (EPAC/cAMP-GEF). Both PKA and EPAC are ubiquitously expressed in all tissues, and an increase in intracellular cAMP levels will lead to the activation of both PKA and EPAC. Therefore, careful dissections of the individual role and relative contribution of EPAC and PKA within the overall cAMP signaling in various model systems are critical for further elucidating the mechanism of cAMP signaling. To date no EPAC-specific antagonists and agonist, as well as isoform-specific agonists have been reported, and developing EPAC-specific pharmacological probes to determine the physiological functions that EPAC play in the overall cAMP-mediated signaling remains a major challenge within the research field. Furthermore, identified regulators of EPAC may lead to new mechanism-based therapeutic strategies specifically targeting the EPAC / cAMP-signaling components as EPAC has been implicated to play important roles in major human pathological conditions such as diabetes, heart disease, and cancer. This qHTS will be used to screen the Molecular Libraries Small Molecule Repository (MLSMR) as a concentration-titration series using the NCGC unique quantitative screening (qHTS) platform to find inhibitors for EPAC1. In addition, this assay will also be used as a counterscreen for the EPAC2 qHTS. This fluorescent based assay is developed and validated for EPAC1 that measures exchange using EPAC effector Rap1 complex with BODIPY-GDP, a GDP analog with a tethered fluorophores. Inhibitors are identified by monitoring the change in fluorescence signal as the exchanged free BODIPY-GDP has a reduced fluorescence compared to Rap1-bound BODIPY-GDP. Decrease in signal (inhibition) is the desired outcome for the EPAC1 antagonist while no activity in this assay is desired for the EPAC2 antagonist counterscreen. de Rooij, J., Zwartkruis, F. J., Verheijen, M. H., Cool, R. H., Nijman, S. M., Wittinghofer, A., and Bos, J.L. (1998) Nature 396, 474-477 [2] Kawasaki, H., Springett, G. M., Mochizuki, N., Toki, S., Nakaya, M., Matsuda, M., Housman, D. E., and Graybiel, A. M. (1998) Science 282, 2275-2279 NIH Chemical Genomics Center [NCGC] NIH Molecular Libraries Probe Centers Network [MLPCN] MLPCN Grant: NS066510 Assay Submitter (PI): Xiaodong Cheng, The University of Texas, Medical Branch
Briefly, three uL of reagents (100 nM EPAC1, 250 nM RAP1B-BODIPY-GDP, 50 uM GDP) were dispensed into a 1536-well Greiner black solid-bottom medium binding assay plate. Controls and test compounds (23 nL) were transferred to the plate via a Kalypsys pin tool equipped with a 1536-pin array. The plates were centrifuged at 1,000 rpm for 15 seconds followed by 5 minute incubation at room temperature. The assay plates were read at 5 minute intervals for 30 minutes in the ViewLux plate reader using 480nm excitation and 540nm emission filters. The results were normalized to the […] positive control ATA and DMSO.
Take `O=C(OC1CN2CCC1CC2)C(CO)(c1ccccc1)c1ccccc1` (stereo not given): the activity change, negative = inhibition was inactive: -13.1%.

For `C=C(C)C#CC(O)(C(=O)OC1CCN(C)CC1)c1ccccc1` (stereo not given), the activity change, negative = inhibition is inactive: 16.2%.

As to `COc1ccc(Br)c(C(=O)NCC2(N3CCCCC3)CCCCC2)c1`, the activity change, negative = inhibition was inactive: 0.605%.

On to `CC(C)Oc1ccc(C(=O)NCC2(N(C)C)CCCCC2)cc1`, for which the activity change, negative = inhibition was inactive: -14.6%.

As for `O=C(OCCN1CCCC1)C(O)(c1ccccc1)c1ccccc1`, the activity change, negative = inhibition was inactive: -11.1%.

Regarding `CN(C)c1cccc(C(=O)NCC2(N(C)C)CCCCC2)c1`, the activity change, negative = inhibition is inactive: 2.37%.

In the case of `CN(C)C1(CNC(=O)c2ccc(Br)cc2)CCCCC1`, the activity change, negative = inhibition was inactive: -2.87%.

Consider `COc1cc(C(=O)NCC2(N(C)C)CCCCC2)c([N+](=O)[O-])cc1OC`, for which the activity change, negative = inhibition is inactive: 3.25%.

Consider `COc1cccc(C(=O)NCC2(N3CCCCC3)CCCCC2)c1`, for which the activity change, negative = inhibition was inactive: -17.4%.

With `COc1ccc(Cl)cc1C(=O)NCC1(N(C)C)CCCCC1`, the activity change, negative = inhibition was inactive: -0.364%.

Regarding `O=C(NCC1(N2CCCCC2)CCCCC1)c1cccc(Cl)c1`, the activity change, negative = inhibition is inactive: -7.66%.

With `Cc1ccccc1C(=O)NCC1(N2CCCCC2)CCCCC1`, the activity change, negative = inhibition was inactive: -7.91%.

Turning to `CN(C)C1CCCC1OC(=O)C(O)(c1ccccc1)c1ccccc1` (stereo not given), the activity change, negative = inhibition was inactive: 8.85%.

Regarding `CN(C)c1ccc(C(=O)NCC2(N(C)C)CCCCC2)cc1`, the activity change, negative = inhibition was inactive: -6.69%.

In the case of `C=CCN1CCN(CCOC(=O)C(O)(c2ccccc2)c2ccccc2)CC1`, the activity change, negative = inhibition is inactive: -17.3%.

Take `O=C(NCC1(N2CCCCC2)CCCCC1)c1cc(F)c(F)cc1Cl`: the activity change, negative = inhibition was inactive: 18.9%.

As to `COc1ccc(C(=O)NCC2(N(C)C)CCCCC2)cc1`, the activity change, negative = inhibition is inactive: 1.8%.

For the compound `Cc1cc(C(=O)NCC2(N3CCCCC3)CCCCC2)ccc1[N+](=O)[O-]`, the activity change, negative = inhibition is inactive: 13.1%.

As to `CCN1CCCC(OC(=O)C2(O)c3ccccc3C=Cc3ccccc32)C1` (stereo not given), the activity change, negative = inhibition is inactive: 1.85%.

Regarding `O=C(NCC1(N2CCCCC2)CCCCC1)c1cccc(Br)c1`, the activity change, negative = inhibition was inactive: 25.4%.

Take `O=C(NCC1(N2CCCCC2)CCCCC1)c1cc([N+](=O)[O-])ccc1Cl`: the activity change, negative = inhibition was inactive: 6.64%.

For the compound `CN1[C@@H]2CC[C@H]1CC(OC(=O)C(O)(c1ccccc1)c1ccccc1)C2` (stereo not given in full), the activity change, negative = inhibition is inactive: -1.4%.

For `CCN(CC)CC(C)C(C)OC(=O)C(O)(c1ccccc1)c1ccccc1` (stereo not given), the activity change, negative = inhibition is inactive: -7.73%.

Take `COc1cc(SC)ccc1C(=O)NCC1(N(C)C)CCCCC1`: the activity change, negative = inhibition is inactive: -8.14%.

With `CC(C)N1C(=O)CC2(CCN(CCOC(=O)C(O)(c3ccccc3)c3ccccc3)CC2)C1=O`, the activity change, negative = inhibition is inactive: -1.5%.
